The source of these data is patent US11986532B2 (Arvinas Operations, Inc., priority 2021, dated 2024).

For orientation: DC50 means the concentration at which degradation of the target reaches its halfway point.

The experiment deals with BCL6 (Homo sapiens, UniProt P41182). Kind of experiment: Immunofluorescence protocol for high content imaging of BCL6 (degradation) in T47D cells, 3 days compound treatment. Particulars: for DC50: read-out: Mean DC50 (nM)* category. The protocol: Immunofluorescence Protocol for High Content Imaging of BCL6
T47D cells were seeded in 100 μl volume of RPMI1640-10% FBS in a 96-well black/clear bottom plates for adherent lines (Corning #3904).
Day 1. T47D breast cancer epithelial cells were seeded at a density so that confluence is ˜70-90% at endpoint. Cells were seeded at 7K/0.1 ml/well the morning prior to the addition of exemplary bifunctional degradation compounds.
Day 2. Prepare an 11 point 3-fold serial dilution of exemplary bifunctional compound in DMSO and aliquot an appropriate volume to cell growth media to generate a 2× final concentration of exemplary bifunctional compound. Add an equal volume (0.1 ml) of 2× exemplary bifunctional compound/media mix to previously plated cells, for a final top concentration in aqueous cell growth media of 0.1 or 1 μM. Incubate for 3 days at 37° C., 5% CO2.
Day 5 Immunofluorescence. Discard cell media. Wash wells with 200 μl of room temperature phosphate-buffered saline (PBS). Prepared 4% paraformaldehyde (PFA) from 16% PFA (Electron Microscopy Sciences #15710) using 1×PBS. Fifty μl of 4% PF was added to each well and incubate for 15 minutes at room temperature to fix the cells. The PFA was aspirated and the cells washed twice with PBS (200 μl)).
Prepared 0.1% Triton X-100 in PBS using 10% triton X-100 stock. The cells were permeabilized by adding 100 ul of the 0.1% Triton X-100 in PBS to each well to permeabilize cells and incubating at room temperature for 15 minutes. Cells were washed twice with PBS.
Prepared 3% BSA/PBS (from Thermofisher #37515 Blocker BSA in TBS, 10%), and 100 ul was added to each well. The cells were incubated for at least 1 hour at room temperature.
Prepared 1% BSA/PBS using Blocker BSA/PBS, and the 3% BSA/PBS removed from the wells.
For no primary antibody controls, 50 μl 1% BSA/PBS was added.
Primary antibody (BCL6 Rb Ab, CST-14895, Cell Signaling) was diluted 1:300 in 1% BSA/PBS using Blocker BSA/PBS.
Fifty μl of primary antibody added to all remaining wells (i.e., all wells other than the primary antibody controls) and the cells were incubated overnight at 4° C. with slow orbital movement.
Day 6. Contents of the wells was removed and the cells washed four times with 200 ul PBS. 1% BSA/PBS was prepared using Blocker BSA in PBS.
Diluted secondary antibody goat anti-Rb IgG Alexa-488 1:1000, and cell mask-Alexa-647 1:3000 in 1% BSA/PBS in the same mix. Add 50 μl to each well and incubate at room temperature for 1 hour in the dark.
Cells were washed three times with 200 ul PBS, and then incubated for 10 minutes with 100 ul Hoechst dye at 1 μg/mL (20 mM stock) to stain cell nuclei. […]
Plates were equilibrated to room temperature prior to reading. […]

Turning to `CCOc1c(N2CC3(CCC(OC4CCN(c5ncc(Cl)c(Nc6ccc7c(c6)cc(OCC(=O)NC)c(=O)n7C(C)C)n5)CC4)CC3)C2)ccc2c1CN(C1CCC(=O)NC1=O)C2=O` (stereo not shown), the “Mean Dmax (%)** category” value was “B (50 <= B < 70)” and the DC50 is below 10 nM.
In the same order, the values of `CNC(=O)COc1cc2cc(Nc3nc(N4CCC(O[C@H]5C[C@H](N6C7CCC6CN(c6ccc8c(c6)CN(C6CCC(=O)NC6=O)C8=O)C7)C5)CC4)ncc3Cl)ccc2n(C(C)C)c1=O` (stereo partly shown) are “B (50 <= B < 70)” and below 10 nM.
